Source: patent US20200102400A1

Protein sequences, listed by entry. Tags and fused reporters are not part of them. Residues count along the entry.
UniProt P08637, 17-208 F176V: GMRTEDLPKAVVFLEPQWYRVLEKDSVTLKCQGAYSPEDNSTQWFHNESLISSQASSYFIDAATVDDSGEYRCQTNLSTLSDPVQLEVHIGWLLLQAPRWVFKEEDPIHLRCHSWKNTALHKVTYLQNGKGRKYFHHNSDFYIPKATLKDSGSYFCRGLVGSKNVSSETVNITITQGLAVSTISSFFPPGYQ
UniProt P02745, 23-245, chain 1 of 3: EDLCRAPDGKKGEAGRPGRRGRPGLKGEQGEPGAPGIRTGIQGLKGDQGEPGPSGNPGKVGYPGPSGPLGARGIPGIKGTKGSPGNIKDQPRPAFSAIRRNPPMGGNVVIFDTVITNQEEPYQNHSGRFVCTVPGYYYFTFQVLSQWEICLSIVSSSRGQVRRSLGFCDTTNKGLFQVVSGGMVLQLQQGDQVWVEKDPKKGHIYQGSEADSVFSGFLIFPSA
UniProt P31994, 43-217: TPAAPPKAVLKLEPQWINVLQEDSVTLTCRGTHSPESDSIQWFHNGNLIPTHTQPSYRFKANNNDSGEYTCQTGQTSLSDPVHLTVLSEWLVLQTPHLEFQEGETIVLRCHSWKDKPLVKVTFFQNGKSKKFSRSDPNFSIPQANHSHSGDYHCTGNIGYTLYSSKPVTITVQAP

What was measured:
[1] = molecular target: FcγRIIIa-V158-GST (dimeric FcγRIIIaV158) (human) (UniProt P08637); experiment: FACS, cell display, 100 nM FcγRIIIaV158-GST-PE
[2] = molecular target: FcγRIIIa-V158-GST (dimeric FcγRIIIaV158) (human) (UniProt P08637); experiment: FACS, 100 nM FcγRIIIaV158-GST-PE; vs Aglyco IgG
[3] = molecular target: C1q protein from human serum (human) (UniProt P02745); experiment: FACS, cell display, 10 nM C1q-PE
[4] = molecular target: C1q protein from human serum (human) (UniProt P02745); experiment: FACS, 10 nM C1q-PE; vs Aglyco IgG
[5] = molecular target: FcγRIIb-GST (dimeric FcγRIIb) (human) (UniProt P31994); experiment: FACS, cell display, 100 nM FcγRIIb-GST-PE
[6] = molecular target: FcγRIIb-GST (dimeric FcγRIIb) (human) (UniProt P31994); experiment: FACS, 100 nM FcγRIIb-GST-PE; vs Aglyco IgG

Substance | MFI [1] | Increasing Fold [2] [fold] | MFI [3] | Increasing Fold [4] [fold] | MFI [5] | Increasing Fold [6] [fold]
Fc-V1 IgG variant (displayed) (antibody) | 123 | 32.3 |  |  |  | 
Fc-V1 IgG variant (displayed) (antibody; other documents disagree on this pair) |  |  | 1050 | 44.8 | 6.8 | 1.51
Fc-V11 IgG variant (displayed) (antibody) | 159 | 41.7 |  |  |  | 
Fc-V11 IgG variant (displayed) (antibody; other documents disagree on this pair) |  |  | 1120 | 47.8 | 8.1 | 1.8
Fc-V12 IgG variant (displayed) (antibody) | 176 | 46.5 |  |  |  | 
Fc-V12 IgG variant (displayed) (antibody; other documents disagree on this pair) |  |  | 1040 | 44.1 | 7.9 | 1.76
Fc-V15 IgG variant (displayed) (antibody) | 129 | 34 |  |  |  | 
Fc-V15 IgG variant (displayed) (antibody; other documents disagree on this pair) |  |  | 1310 | 55.5 | 11.8 | 2.62
Fc-V18 IgG variant (displayed) (antibody) | 176 | 46.5 |  |  |  | 
Fc-V18 IgG variant (displayed) (antibody; other documents disagree on this pair) |  |  | 1050 | 44.5 | 9.8 | 2.18
Fc-V19 IgG variant (displayed) (antibody) | 167 | 43.9 |  |  |  | 
Fc-V19 IgG variant (displayed) (antibody; other documents disagree on this pair) |  |  | 1330 | 56.8 | 6.9 | 1.53
Fc-V23 IgG variant (displayed) (antibody) | 136 | 35.9 |  |  |  | 
Fc-V23 IgG variant (displayed) (antibody; other documents disagree on this pair) |  |  | 1210 | 51.5 | 10.5 | 2.33
Fc-V24 IgG variant (displayed) (antibody) | 130 | 34.2 |  |  |  | 
Fc-V24 IgG variant (displayed) (antibody; other documents disagree on this pair) |  |  | 1140 | 48.7 | 9.4 | 2.09
Fc-V26 IgG variant (displayed) (antibody) | 136 | 35.8 |  |  |  | 
Fc-V26 IgG variant (displayed) (antibody; other documents disagree on this pair) |  |  | 1210 | 51.5 | 7.5 | 1.67
